For 2 compounds, LD50 results are on record in ChEMBL document CHEMBL1122429, “In vitro and in vivo protection of acetylcholinesterase against organophosphate poisoning by pretreatment with a novel derivative of 1,3,2-dioxaphosphorinane 2-oxide” (1983).

Common to all, as to conditions: in vivo
Data set [1] is filed under the species Mus musculus. Nature of the data set: Acute toxicity in mouse.
The species entered for data set [2] is Mus musculus. As to the kind of experiment: Acute toxicity was evaluated in mouse.
For the next data set, the species on record is Rattus norvegicus. Nature of the data set: Acute toxicity was evaluated in rat.

In turn, `C[N+](C)(C)c1cccc(O)c1.[I-]` showed a median lethal dose (LD50) in the data set filed under Mus musculus [1] of 59.9 mg/kg. Take `CN(C)C(=O)Oc1ccc[n+](C)c1.[Br-]`: the 50% lethal dose (LD50) in the data set listed under Mus musculus [2] turned out to be 2.6 mg/kg; in the data set listed under Rattus norvegicus it was 3.1 mg/kg.

For orientation: LD50 means the dose expected to kill half of the subjects tested.
